Some tests of the compounds listed are not included; inactive here does not mean inactive elsewhere.

The assay deals with cytotoxicity, CellTiter-Glo ATP luminescence. The assay is described as follows: loss of cell viability by ATP content – CellTiter-Glo, cytotoxicity control, dose response (AID 1259333).

The term AC50 denotes the midpoint of the concentration-response curve, whichever way the signal moves. For the compound `C=C(C)C#CC(O)(C(=O)OC1CCN(C)CC1)c1ccccc1` (stereo unspecified), the AC50 was 8.7 µM.

Source of the values: PubChem BioAssay AID1259333 (Broad Institute, 2017).
